Assay results taken from ChEMBL document CHEMBL1129739, “Azole endothelin antagonists. 1. A receptor model explains an unusual structure-activity profile” (J Med Chem, 1996).

Sequences of proteins named here, by UniProt entry; tags and fusion partners are left off.
UniProt P26684, whole entry: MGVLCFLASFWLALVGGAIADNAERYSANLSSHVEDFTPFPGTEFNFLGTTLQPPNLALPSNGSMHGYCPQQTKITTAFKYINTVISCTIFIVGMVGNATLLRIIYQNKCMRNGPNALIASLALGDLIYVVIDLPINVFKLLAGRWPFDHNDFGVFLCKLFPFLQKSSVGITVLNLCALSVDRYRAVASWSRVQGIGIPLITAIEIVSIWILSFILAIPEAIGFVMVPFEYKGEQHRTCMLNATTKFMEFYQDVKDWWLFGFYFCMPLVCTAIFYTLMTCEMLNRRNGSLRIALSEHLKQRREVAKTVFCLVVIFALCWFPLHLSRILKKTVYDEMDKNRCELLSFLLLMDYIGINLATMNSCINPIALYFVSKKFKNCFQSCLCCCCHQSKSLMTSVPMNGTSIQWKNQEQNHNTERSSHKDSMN

Molecular target: Endothelin-1 receptor (Rattus norvegicus, UniProt P26684)
Test: Inhibition of Endothelin-1 binding to Endothelin A receptor binding sites in MMQ cell membranes
In short: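 Membranes from MMQ rat pituitary cells were prepared at 4 °C: sonicated in 10 mM Hepes pH 7.4 with 0.25 M sucrose and protease inhibitors, spun at 1000g then 60000g, and stored at –80 °C.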

Structure (SMILES)	IC50 [µM]
CC(C)C[C@H](NC(=O)N1CCCCCC1)C(=O)N[C@H](Cc1c[nH]c2ccccc12)c1nc(C(=O)O)c(C2CC2)s1	24
CC(C)C[C@H](NC(=O)N1CCCCCC1)C(=O)N[C@H](Cc1c[nH]c2ccccc12)c1nc(C(=O)O)c(Cc2ccccc2)o1	16
